Drawing on patent US12109231B2, “Treatment of neurodegenerative disease with sodium chlorite” (Neuvivo, Inc., priority 2015, dated 2024), this text covers toxicities for 1 substance.

In the data set the test system is ALS patients. The settings on record: phase 1 or 2 trials.

For the substance sodium chlorite, the toxicities entry is on record as “No toxicities were noted”.
